{"source": "patent US20250186600A1", "about": "“EXCIPIENT COMPOUNDS FOR PROTEIN FORMULATIONS” (Comera Life Sciences, Inc., priority 2020, published 2025)", "key": {"omalizumab [1]": {"test_system": "omalizumab", "assay": "Diffusion interaction parameter kD of omalizumab by DLS (Example 62)", "details": "Table 62A series; omalizumab 10 to 0.6 mg/mL, 0.1M excipient, His HCl pH 6.0, 25° C."}, "omalizumab [2]": {"test_system": "omalizumab", "assay": "Viscosity of omalizumab solution by DLS of gold nanoparticles (Example 62)", "details": "pH 6"}, "ustekinumab [3]": {"test_system": "ustekinumab", "assay": "Stabilization at low pH, Sypro orange fluorescence (Example 45)", "details": "excipient 5 mg/mL, ustekinumab 1 mg/mL, glycine acidification buffer pH 2.6, Sypro orange fluorescence"}, "ustekinumab [4]": {"test_system": "ustekinumab", "assay": "Urea denaturation, Sypro orange fluorescence (Example 44)", "format": "physicochemical", "details": "excipient 5 mg/mL, ustekinumab 1 mg/mL, 6M urea, 20 mM histidine pH 6.0, Sypro orange fluorescence"}}, "data": [{"substance": "Cyclohexane methylamine", "values": [{"measurement": "kD", "setting": "omalizumab [1]", "value": -20.9, "unit": "mL/g"}, {"measurement": "Viscosity normalized to control", "setting": "omalizumab [2]", "value": 0.87}]}, {"substance": "Methyl cytidine", "values": [{"measurement": "% change in stability", "setting": "ustekinumab [3]", "value": 21.7, "unit": "%"}]}, {"substance": "methyl cytidine", "values": [{"measurement": "% increased stability", "setting": "ustekinumab [4]", "value": 4.0, "unit": "%"}]}]}
